# Yeast mating assay B: variants of the scFv Ab-14

The target is the same throughout: PDVDLGDISGINAS, from the HR2 region of SARS-CoV-2 spike.

Each scFv is VH, three GGGGS repeats, VL, as in the parent Ab-14, and differs from it in the CDRs of the heavy chain only.
VH: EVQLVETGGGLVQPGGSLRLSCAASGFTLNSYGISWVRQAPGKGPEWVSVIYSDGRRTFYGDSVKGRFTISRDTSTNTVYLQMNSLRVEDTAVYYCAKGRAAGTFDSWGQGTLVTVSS
VL: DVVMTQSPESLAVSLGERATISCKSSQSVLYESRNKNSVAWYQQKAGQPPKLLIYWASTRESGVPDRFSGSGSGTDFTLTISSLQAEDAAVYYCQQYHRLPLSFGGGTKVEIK

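The variants were designed computationally from a first round of random CDR variants and then made and measured. Group labels follow the data file (Ctrl: baseline library sampled from a position-specific scoring matrix, with some repeated check sequences; Rand: our label for a block that the file lists under HC and that is probably the random mutants of the ten best first-round binders; GP: Gaussian process model; GPLM: also part of the Gaussian process libraries; HC: hill climbing; Gen: genetic algorithm; Gibbs: Gibbs sampling; a sequence that several methods proposed may carry one label only). The scFvs were displayed on barcoded MATa yeast, the peptide on MATalpha yeast. The frequency of each diploid, read from paired DNA barcodes, reflects how well the two displayed proteins bind. Scores were corrected for input abundance and mapped to Kd with protein pairs of known affinity run in the same pool. The assay was run in six technical replicates.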

Changes read parent residue, position, new residue, counted from the first residue of the VH shown. This list holds designs with at most six substitutions. Each Kd is an estimate from the mating assay, the geometric mean of the replicates in which the pair was seen; lower is stronger. A pair that was not seen in any replicate is written "nd"; this usually means weak binding, but a binder can also be missed.

T28E S63N R100M A101T [GP_Gibbs]: 2.1 nM (6 of 6 replicates).
L29P G99V F105T [Ctrl]: nd (0 of 6 replicates).
T28E G61Q R100Q A101T [GPLM_Gibbs]: 4.9 nM (6 of 6 replicates).
S31Q G33D G61D D62H R100Q A101L [Rand]: 160 nM (1 of 6 replicates).
G61A G103V S107T [GP_HC]: nd (0 of 6 replicates).
N30E G61T R100Q A101G [GP_HC]: 240 nM (6 of 6 replicates).
G26D T28S A101E A102R D106S [Ctrl]: nd (0 of 6 replicates).
L29H D62H A102M [Ctrl]: nd (0 of 6 replicates).
G61T K65S A101L S107L [Ctrl]: 35 nM (3 of 6 replicates).
G61I A102M [Ctrl]: 690 pM (6 of 6 replicates).
G61H S107M [Ctrl]: 40 nM (2 of 6 replicates).
T28S G61A S63N R100T [GPLM_Gen]: 150 pM (6 of 6 replicates).
N30P S31D G55K G103L D106I [Rand]: 320 nM (1 of 6 replicates).
T28S G61I R100D [GPLM_Gen]: 1.8 nM (6 of 6 replicates).
T28Q R100A [GP_HC]: 160 nM (4 of 6 replicates).
S31D T104R [Ctrl]: 39 nM (1 of 6 replicates).
F59A G61A R100F S107Q [Ctrl]: 8.0 nM (6 of 6 replicates).
T28S G61A S63A R100Q [GPLM_Gen]: 2.1 nM (6 of 6 replicates).
T28S G61D R100W A101M [GP_Gibbs]: 65 nM (6 of 6 replicates).
S31L A101V F105M D106R [Ctrl]: 34 nM (2 of 6 replicates).
G26R S35T G61H S107Q [Ctrl]: nd (0 of 6 replicates).
T28E R100L A101T [GPLM_Gibbs]: 4.5 nM (6 of 6 replicates).
S53A R100T S107K [GP_Gibbs]: 850 pM (6 of 6 replicates).
T28S S63H R100K S107V [GP_Gibbs]: 62 nM (6 of 6 replicates).
T28E S31D F59Q G61I [GPLM_HC]: 14 nM (6 of 6 replicates).
L29I N30E S31E G61T G103A [Ctrl]: nd (0 of 6 replicates).
T28V S31E G61A [GPLM_Gen]: 3.2 nM (6 of 6 replicates).
G26M T28D G61I A101T [GP_Gen]: 20 nM (5 of 6 replicates).
T28K G61D R100K A101T [GP_HC]: 15 nM (2 of 6 replicates).
T28S R100S A101T S107W [GP_Gibbs]: nd (0 of 6 replicates).
F105W [Ctrl]: nd (0 of 6 replicates).
T28D G61K A101L [GP_Gen]: 4.8 nM (6 of 6 replicates).
R56Y F59A G61A A102K [Ctrl]: nd (0 of 6 replicates).
F59W G61I R100Q [GPLM_HC]: nd (0 of 6 replicates).
G26P T28D F59A A101T [GP_Gibbs]: 960 pM (6 of 6 replicates).
T28E G61I R100K S107V [GP_Gen]: 14 nM (6 of 6 replicates).
T28E S53A R100T [GPLM_Gen]: 440 pM (6 of 6 replicates).
T28E S53A R100D [GPLM_Gen]: 480 pM (6 of 6 replicates).
S31D F59A G61M [GPLM_HC]: nd (0 of 6 replicates).
S31E A101I S107D [GP_HC]: 1.4 nM (6 of 6 replicates).
I34Y R100L [Ctrl]: nd (0 of 6 replicates).
S31D A101K [Ctrl]: 39 nM (6 of 6 replicates).
T28D G61A T104H D106N [GPLM_HC]: 850 nM (1 of 6 replicates).
T28P F59A S63Q [Ctrl]: 1.1 nM (3 of 6 replicates).
T28P F59I [Ctrl]: nd (0 of 6 replicates).

The last 5 entries again:

{"changes": "I34Y R100L", "group": "Ctrl", "Kd (apparent)": "nd", "replicates with signal": "0/6"}
{"changes": "S31D A101K", "group": "Ctrl", "Kd (apparent)": "39 nM", "replicates with signal": "6/6"}
{"changes": "T28D G61A T104H D106N", "group": "GPLM_HC", "Kd (apparent)": "850 nM", "replicates with signal": "1/6"}
{"changes": "T28P F59A S63Q", "group": "Ctrl", "Kd (apparent)": "1.1 nM", "replicates with signal": "3/6"}
{"changes": "T28P F59I", "group": "Ctrl", "Kd (apparent)": "nd", "replicates with signal": "0/6"}

Of ten entries with the parent sequence, four were seen in most replicates (averages 2.2 nM to 240 nM), three in one and three in none, so single entries are noisy. Three control strains display no target. For all heavy chain designs, 1% of the pairings with them gave a signal, with a median of 120 nM and one signal in twenty below 7.0 nM, so weak values seen in few replicates may be background. The range of this assay differs from that of the first round, and the authors advise against merging the two. The authors' rule: three or more of the six replicates give a measured affinity, fewer mean a poor binder.

Values reported by Li et al. 2023, doi:10.1038/s41467-023-39022-2 (FLAb copy).